According to patent US20110223597A1 (priority 2010, published 2011):

Experiments:
Assay in all cases: in vitro
[1] = test system: UGT2B10(*2/*2)/UGT1A4(*1/*1); details: human, pH 7.5, KM, single HLM UGT2B10(*2/*2)/UGT1A4(*1/*1)
[2] = test system: UGT1A4(*1/*3)/UGT2B10(*1/*1); details: human, pH 7.5, KM, HLM UGT1A4(*1/*3)/UGT2B10(*1/*1)
[3] = test system: UGT2B10(*1/*2)/UGT1A4(*1/*1); details: human, pH 7.5, KM, HLM UGT2B10(*1/*2)/UGT1A4(*1/*1)
[4] = test system: UGT1A4(*1/*1)/UGT2B10(*1/*1); details: human, pH 7.5, KM, HLM UGT1A4(*1/*1)/UGT2B10(*1/*1)
[5] = test system: UGT1A4(*3/*3)/UGT2B10(*1/*1); details: human, pH 7.5, KM, HLM UGT1A4(*3/*3)/UGT2B10(*1/*1)
[6] = OLZ-10-N-glucuronide isomer 2 formation

Q: Which results are given for `Cc1cc2c(s1)Nc1ccccc1N=C2N1CCN(C)CC1` [OLZ, Olanzapine]?
A: Km at 2 h ([1]; OLZ-4′-N-glucuronide formation): 796 µM; Km at 2 h [1, 6]: 271 µM; Km at 2 h ([2]; OLZ-4′-N-glucuronide formation): 263 ± 59 µM; Km at 2 h [2, 6]: 239 ± 22 µM; Km at 2 h ([3]; OLZ-4′-N-glucuronide formation): 602 µM; Km at 2 h [3, 6]: 196 ± 54 µM; Km at 2 h ([4]; OLZ-4′-N-glucuronide formation): 317 ± 39 µM; Km at 2 h ([4]; OLZ-10-N-glucuronide isomer 1 formation): 352 ± 59 µM; Km at 2 h ([5]; OLZ-4′-N-glucuronide formation): 337 ± 37 µM; Km at 2 h [5, 6]: 263 ± 86 µM
